Test results as given in PubChem BioAssay AID1823 (The Scripps Research Institute Molecular Screening Center, 2009).
This is a selection; strong and weak results do not stand in their true shares. The source made the active and inactive calls. Rule as the data show it: active = inhibition above about 75%; inactive = the rest.

Assay: quenches luminol chemiluminescence in Nox1 counter-screen (AID 1823)
Details: HRP/luminol/H2O2 chemiluminescence counterscreen; at 6.7 µM; stronger effect = higher value

SMILES	inhibition
O=C(OC1CN2CCC1CC2)c1cccc([N+](=O)[O-])c1 (configuration not stated)	inactive: 3.82%
CCOC(=O)/C(=N/Nc1ccc([N+](=O)[O-])cc1)N1CC1	inactive: 7.7%
